Test results taken from patent US20240366775A1, “HUMAN TRANSFERRIN RECEPTOR BINDING ANTIBODY-PEPTIDE CONJUGATE” (PEPTIDREAM INC., priority 2021, published 2024).

Tests used:
[1] = Test substance concentration in plasma, hTfR-KI mouse; assay type: in vivo, hTfR-KI mice; conditions: Example 7-1, tail vein 5 mg/kg, 1, 3, 6 and 24 hours, FIG. 2-1
Protocol: (§1) Blood was drawn from the tail vein after 1 and 3 hours from administration (2 mice/time point). After 6 and 24 hours from administration, mice were anesthetized with isoflurane, blood was drawn from the right ventricle, and then perfused with saline from the left ventricle for 4 to 5 min for blood removing treatment. Blood was collected using an EDTA-2K-treated needle and syringe, and the collected blood was kept on ice until it was separated into plasma. After blood removing treatment, brains were harvested and divided into left and right portions, and the left brain was embedded in a freeze-embedding agent (OCT compound, Sakura Finetek Co., Ltd.) for immunostaining and a frozen block was prepared. The right brain, heart, lung, liver, spleen, kidney, and quadriceps muscle were collected for measurement of test substance concentrations in tissues, weighed, flash-frozen in liquid nitrogen, and stored at −70° C. or less.
(§2) To Strept Avidin plate (Meso Scale Diagnostics, LLC), 150 μL/well of Blocker Casein in PBS (Thermo Fisher Scientific, Inc.) was added and shaken (26° C., 500 rpm) for 60 min in a plate shaker (Biosan) to perform blocking treatment. […] The concentration of each test substance in the samples were calculated by adding 150 μL/well of 2×Read Buffer T to each Strept Avidin plate and measuring with a plate reader (Sector S600, Meso Scale Diagnostics, LLC).

[2] = Test substance concentration in tissue (brain migration), hTfR-KI mouse; assay type: in vivo, hTfR-KI mice; conditions: Example 7-1, tail vein 5 mg/kg, 6 and 24 hours, heart, lung, liver, spleen, kidney, quadriceps muscle, FIG. 2-2
Protocol: as §1, with “less. […]” for “less.”
as §2

[3] = ELISA no-target control wells (non-specific binding of antibodies and antibody-peptide conjugates); conditions: sample at 100 nM, no target immobilized
Protocol: Random biotinylated PD-1 was added to IMMOBILIZER STREPTAVIDIN F96 clear (NUNC, Cat. No. 436014) at 1 μmol per one well and incubated at 4° C. overnight to perform solidification. The plate was washed with 900 μL of PBST in a plate washer (TECAN, HydroSpeed). 300 μL of 1% Block Ace (KAC Co., Ltd., Cat. No. UK-B80) was added per one well and incubated at room temperature for 90 minutes to perform blocking treatment. The plate was washed with 900 μL of PBST in the plate washer. […] The plate was washed with 900 μL of PBST in the plate washer. 50 μL of Goat Anti-Human IgG H&L (HRP) (Abcam, Cat. No. ab97165) diluted 50,000 times with PBST-0.1% Block Ace solution was added and incubated at room temperature for 45 min. The plate was washed with 900 μL of PBST in the plate washer. […] The absorbance at 450 nm was measured in a plate reader (Enspir (trademark), Perkin Elmer).
Random biotinylated TfR was added to IMMOBILIZER STREPTAVIDIN F96 clear (NUNC, Cat. No. 436014) at 1 μmol per one well and incubated at 4° C. overnight to perform solidification. […] The absorbance at 450 nm was measured in a plate reader (Enspir (trademark), Perkin Elmer).

Substance | concentration in plasma, time course [1] | detection in tissues [2] | Abs450 nm at 100 nM, No-target [3]
trastuzumab | detected in plasma at all time points evaluated and showed biphasic changes in plasma concentrations | detected in all tissues | 0.0425
cetuximab |  |  | 0.0465
